Literature values as cited in patent US6696077B2, “Silver alginate foam compositions” (priority 2001, dated 2004).

Details: Ag2O; printed with superscript 20

## silver oxide
  solubility in aqueous solutions: 0.0013 parts per hundred
